Key:
[1] = biological target: Cathepsin L from rat liver (Rattus norvegicus, UniProt P07154); assay: Inhibition of cathepsin L, Z-Phe-Arg-AMC fluorescence progress curves
Description: Stock solutions of the various inhibitors (10 mM) were made in DMF; dilutions were made in the same solvent. Cathepsin L from rat liver, (see Mason et al., Biochem. J. 226:233-241 (1985)) was approximately 1 nM in the assay. The assay buffer contained 50 mM phosphate at pH 6:2, 2.5 mM dithiothreitol (DTT), and 2.5 mM ethylenediaminetetraacetic acid (EDTA). The substrate for cathepsin L was 5 μM Z-Phe-Arg-AMC (carbobenzyloxyphenylalanylarginylaminomethylcoumarin). The assays were initiated at 25° C. by addition of enzyme to 2 mL of assay buffer containing the substrate and the various inhibitors (30-0.001 μM). The increase in fluorescence at 460 nm with excitation at 380 nm was followed with time. Inactivation of cathepsin L was indicated by a downward curve in the increase in fluorescence with time. In the absence of inhibitors, the enzymatic production of free AMC was linear throughout the time course of inactivation examined. Data points were collected over at least 3 half-times of inactivation. The inhibition progress curves were analyzed using non-linear curve fitting software to compute the kobs values. Approximate second-order inactivation constants (kobs /[I]) were calculated for all compounds. For selected inhibitors, plots of 1/[I] vs. 1/kobs yielded the true constants kirr, KI, and kirr/KI and were corrected for the presence of substrate by dividing KI (app.) by (1+[S]/Km).

By UniProt entry, the sequences of proteins in these tests, tags left out. Residues count along the entry.
UniProt P07154, 114-288 limits assumed: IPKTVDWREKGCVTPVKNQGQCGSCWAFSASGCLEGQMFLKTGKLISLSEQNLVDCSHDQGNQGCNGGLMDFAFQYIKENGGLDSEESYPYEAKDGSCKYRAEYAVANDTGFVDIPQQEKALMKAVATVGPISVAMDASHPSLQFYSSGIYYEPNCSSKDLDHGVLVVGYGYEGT
UniProt P07154, 291-334 limits assumed: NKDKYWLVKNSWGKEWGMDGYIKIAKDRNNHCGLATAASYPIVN

calpain = assay: Inhibition (inactivation) of calpain, Suc-Leu-Tyr-AMC; settings: values marked * (or %); pH 7.5, 5 mM CaCl2, 25° C.
Description: The inhibitors were tested against calpain at 1 or 2% as for the other enzymes. The reaction conditions were 50 mM Tris, pH 7.5, 5 mM CaCl2, 2.5 mM DTT, assayed at 25° C. The substrate was 100 μM Suc-Leu-Tyr-AMC.

Structure (SMILES): O=C(/C=C/[C@H](CCc1ccccc1)NC(=O)[C@H](Cc1ccccc1)NC(=O)N1CCOCC1)N[C@@H](Cc1ccccc1)C(=O)O
- kirr [1]: 0.032 s⁻¹
- Ki ([1]; corrected for substrate): 3.7 µM
- k/KI (kirr/KI) ([1]; values without asterisk, 25° C., pH 6.2): 8,600 M^-1 sec^-1
- kobs /[I]* (calpain): < 50 M⁻¹ s⁻¹
